Patent US10065970B2 (Genentech, Inc., priority 2015, dated 2018)

By UniProt entry, the sequences of proteins in these tests, tags left out.
UniProt P42336, whole entry: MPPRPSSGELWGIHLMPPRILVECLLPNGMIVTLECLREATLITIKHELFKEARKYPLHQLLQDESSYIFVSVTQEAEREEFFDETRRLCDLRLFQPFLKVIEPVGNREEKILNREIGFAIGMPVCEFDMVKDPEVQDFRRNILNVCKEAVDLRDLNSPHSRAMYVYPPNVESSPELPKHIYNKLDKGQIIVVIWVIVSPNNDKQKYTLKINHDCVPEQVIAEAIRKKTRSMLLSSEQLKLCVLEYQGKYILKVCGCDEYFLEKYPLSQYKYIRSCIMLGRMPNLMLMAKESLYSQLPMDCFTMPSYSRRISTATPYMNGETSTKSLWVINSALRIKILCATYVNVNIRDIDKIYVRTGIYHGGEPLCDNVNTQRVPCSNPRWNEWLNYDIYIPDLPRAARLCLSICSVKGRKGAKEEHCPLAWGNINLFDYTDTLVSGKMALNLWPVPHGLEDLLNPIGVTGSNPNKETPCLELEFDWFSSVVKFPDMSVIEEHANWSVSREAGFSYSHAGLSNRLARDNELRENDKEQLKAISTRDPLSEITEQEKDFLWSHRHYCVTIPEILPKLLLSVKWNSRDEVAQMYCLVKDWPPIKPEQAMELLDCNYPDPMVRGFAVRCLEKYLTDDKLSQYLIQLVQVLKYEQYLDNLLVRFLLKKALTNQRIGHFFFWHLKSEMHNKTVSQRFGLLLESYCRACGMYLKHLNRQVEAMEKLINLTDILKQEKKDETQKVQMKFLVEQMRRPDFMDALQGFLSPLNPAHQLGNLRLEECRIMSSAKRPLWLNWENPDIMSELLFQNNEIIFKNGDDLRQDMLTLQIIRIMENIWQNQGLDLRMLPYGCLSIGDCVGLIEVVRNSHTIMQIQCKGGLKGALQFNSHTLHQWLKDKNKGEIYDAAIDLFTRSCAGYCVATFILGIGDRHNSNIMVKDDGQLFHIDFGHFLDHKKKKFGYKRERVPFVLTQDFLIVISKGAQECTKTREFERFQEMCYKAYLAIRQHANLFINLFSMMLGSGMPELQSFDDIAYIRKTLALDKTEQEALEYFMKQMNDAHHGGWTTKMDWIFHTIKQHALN

Target: PI3Kα (alpha) (Homo sapiens (Human), UniProt P42336)
Assay: p110α (alpha) PI3K Binding Assay (ADP-Glo lipid kinase reaction)
Type: biochemical
Settings: read-out: PI3Kα-(alpha) ATP (Ki) micromolar
Description: The ability of a compound of the invention to act as an inhibitor of PI3Kα was determined using the methods of Example 901.
PI3K Binding assays are intended for determining the biochemical potency of small molecule PI3K inhibitors. The PI3K lipid kinase reaction is performed in the presence of PIP2:3PS lipid substrate (Promega #V1792) and ATP. Following the termination if the kinase reaction, turnover of ATP to ADP by the phosphorylation of the lipid substrate is detected using the Promega ADP-Glo™ (Promega #V1792) assay. Reactions are carried out using the following conditions:
After 120 minutes of reaction time, the kinase reaction is terminated. Any ATP remaining after the reaction is depleted, leaving only ADP. Then the Kinase Detection Reagent is added to convert ADP to ATP, which is used in a coupled luciferin/luciferase reaction. The luminescent output is measured and is correlated with kinase activity.
All reactions are carried out at room temperature. A 3 μl mixture (1:1) of enzyme/lipid substrate solution is added to a 384 well white assay plate (Perkin Elmer #6007299) containing 50 nl of test compound or DMSO only for untreated controls. The reaction is started by the addition of 2 μl ATP/MgCl2. The kinase reaction buffer contains 50 mM HEPES, 50 mM NaCl, 3 mM MgCl2, 0.01% BSA, 1% DMSO, and enzyme and substrate concentrations as indicated in the above table. The reaction is stopped by the addition of 10 μL ADP-Glo reagent. Plates are read in a Perkin Elmer Envision system using luminescence mode. 10 point dose response curves are generated for each test compound. Ki values for each compound are determined using the Morrison Equation.

[1] = PI3K alpha 0.2 nM, ATP 40 μM, PIP2:3PS 50 μM, 120 min, room temperature, Ki by Morrison Equation

| Compound | Ki | Ki [1] |
| --- | --- | --- |
| NC(=O)[C@@H](Nc1cc2c3c(c1)nc(-c1ncco1)n3CCCO2)C1CC1 [Example 142, (S)-2-Cyclopropyl-2-((1-(oxazol-2-yl)-8,9-dihydro-7H-6-oxa-2,9a-diazabenzo[cd]azulen-4-yl)amino)acetamide] | 103 nM |  |
| CC[C@H](C(N)=O)n1cc(-c2cc3c4c(c2)nc(-c2ccc5nc(N)sc5n2)n4CCCCO3)cn1 (single isomer, unassigned) [Example 299] |  | 0.061 nM |
| NC(=O)[C@@H](Oc1cc2c3c(c1)nc(-c1ccc4oc(N)nc4c1)n3CCCO2)C1CC1 (single isomer, unassigned) [Example 260] |  | 0.273 nM |
| NC(=O)[C@H](Oc1cc2c3c(c1)nc(-c1cc(F)c4nc(N)sc4c1)n3CCO2)C1CC1 (single isomer, unassigned) [Example 291] |  | 7.62 nM |

Like-named read-outs stand apart in the source and are kept apart here.
